Experimental findings from ChEMBL document CHEMBL5131537 (J Med Chem, 2022) are described below.

Structures are written as SMILES. pIC50: −log10 of the molar value.

The target of the experiment is Human immunodeficiency virus type 1 reverse transcriptase (Human immunodeficiency virus 1, UniProt Q72547).

`Cc1cc(C#N)cc(C)c1Oc1nc(Nc2ccc(C#N)cc2)nc(N)c1Br` [ETRAVIRINE] gave a pIC50 of 7.89.
